These results are taken from patent publication US10328092B2, “Methods and compositions for treatment of drug addiction” (The Royal Institution for the Advancement of Learning / …, priority 2015, dated 2019).

In assay [1] the test system is TNFα mRNA. Particulars: mouse, in vivo. Here is the method: For tissue, total RNA from the ventral striatum was extracted and isolated by RNAqueous-4PCR total RNA isolation kit (Ambion, AM1914), according to manufacturer's instructions. For microglia and astrocyte cultures, total RNA was isolated by RNeasy kit (Qiagen, 74136). For all sample types, 0.5 μg of total RNA was used for cDNA synthesis with Quantitect Reverse Transcription Kit (Qiagen, 205313), and quantitative RT-PCR was performed with Fast SYBR-Green Master Mix (Applied Biosystems) detected by StepOne Plus RealTime PCR system (Applied Biosystems). The sequences of qPCR primers used for mRNA quantification in this study were obtained from Integrated DNA Technologies, and are as follows: mouse TNFα forward, […] (SEQ ID NO: 1) [200 nM]; mouse TNFα reverse, […] (SEQ ID NO: 2) [200 nM]; mouse GAPDH forward, […] (SEQ ID NO: 3) [300 nM]; mouse GAPDH reverse, […] (SEQ ID NO: 4) [300 nM]; rat TNFα forward, […] (SEQ ID NO: 1) [600 nM]; rat TNFα reverse, […] (SEQ ID NO: 5) [600 nM]; rat cyclophilin forward, […] (SEQ ID NO: 6) [500 nM]; rat cyclophilin reverse, […] (SEQ ID NO: 7) [500 nM]. After 40 cycles, the Ct values were determined. To normalize the samples, ΔCt between TNFα and GADPH or cyclophilin Ct values was calculated. The x-fold difference in expression between the different treatments was then determined by subtraction of the ΔCt values and termed ΔΔCt. Finally, the total change was calculated as 2-ΔΔct and the relative amount compared with control samples was deducted.

In assay [2] the test system is primary rat microglia cultures. Nature of the assay: TNFα mRNA in primary rat microglia cultures. The assay is classed as cell-based.

With `CCCN1CCC[C@@H]2Cc3n[nH]cc3C[C@H]21` [quinpirole], in assay [1], the “TNFα mRNA in cortical microglia” value is on record as 82±37 % of control, the “TNFα mRNA in other striatal cell types” value is on record as 138±72 % of control and the “TNFα mRNA in striatal microglia cells” value is on record as “increased”. Moreover, the “change in TNFα mRNA in primary rat microglia cultures” value in assay [2] was “effective at increasing”.
